Values quoted from earlier work in patent publication US20100190739A1, “Rapidly Dissolving Vitamin Formulation and Methods of Using the Same” (FLEMING AND COMPANY, PHARMACEUTICALS, priority 2008, published 2010).

Details: in vivo

For iron, the “Intake level at which acute toxicity can occur” value is given as 40 mg/kg and the “Single dose that can be fatal” value is given as at least 200 mg/kg.
